Curated experimental data: properties

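The numbers are reported measurements, compiled and curated for the OPERA QSAR suite. One number stands for a compound and property, with no spread given. Conditions of the individual experiments are not part of the data. A value may pool stereoisomers or salt forms, and the file does not say which form was measured. Some upstream entries may be estimates or bounds without being marked so.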

Melting points are in °C.
Boiling points are in °C, nominally at 760 mmHg.
logP is the log10 of the octanol-water partition coefficient; higher is more lipophilic.
Water solubility is log10 of mol/L, nominally at 25 °C; higher is more soluble.
Vapor pressures (log10 mmHg) refer to near room temperature, 15 to 30 °C; higher is more volatile.
The Henry's law constant is on a log10 scale in atm·m3/mol (set defined at 25 °C); higher favours air over water.
The unbound fraction in human plasma runs from 0 (all bound) to 1 (all free).
Intrinsic clearance (human, µL/min per 10^6 hepatocytes): higher is faster turnover, and 0 stands for none detected.

The entry for C1CCOCOC1 [1,3-Dioxepane] lists MP -77.5 °C and log Kow 0.6 and vapor pressure 1.352 (log10 mmHg). CCCCCCOc1ccc(C(c2ccccc2)(c2ccccc2)c2ccccc2)cc1OCCCCCC [1,2-Bis(hexyloxy)-4-(triphenylmethyl)benzene] is reported with MP 79.6 °C and vapor pressure -9.557 (log10 mmHg). O=C(O)c1ccccc1C(=O)Nc1ccc(S(=O)(=O)Nc2nccs2)cc1 [Phthalylsulfathiazole] is reported with log Kow 0.01 and log solubility -3.227 (log10 mol/L). For CC1(C)[C@H]2CC[C@]3(C2)[C@H]1C(=O)CCC3(C)C (relative stereo) the data give log Kow 4.905 and log solubility -3.642 (log10 mol/L) and vapor pressure -2.14 (log10 mmHg). CCCCCCCCCCCC(=O)OCC(C)(C)C=O [2,2-Dimethyl-3-oxopropyl dodecanoate] has MP 15.45 °C and vapor pressure -4.339 (log10 mmHg). Listed for O=P(c1ccccc1)(c1ccccc1)c1ccccc1 [Triphenylphosphine oxide]: bp 360 °C and log solubility -2.877 (log10 mol/L). The entry for CCCCCCCCN1CCCC1=O [1-Octyl-2-pyrrolidone] lists log Kow 4.1 and log solubility -2.274 (log10 mol/L) and vapor pressure -3.222 (log10 mmHg).

CC(C)c1ccc(Cl)cc1Br [2-Bromo-4-chloro-1-(1-methylethyl)benzene] is reported with bp 244.2 °C and log Kow 5.5 and log solubility -5.222 (log10 mol/L) and vapor pressure -1.394 (log10 mmHg). Listed for Cc1cc(S(=O)(=O)[O-])ccc1N.[Na+] [Benzenesulfonic acid, 4-amino-3-methyl-, monosodium salt]: log Kow 0.325 and log solubility -1.729 (log10 mol/L). COc1ccc(C(=O)c2ccccc2)c(O)c1 [2-Hydroxy-4-methoxybenzophenone] is reported with log solubility -3.251 (log10 mol/L) and vapor pressure -5.255 (log10 mmHg). Listed for N#Cc1ccccc1-c1ccc(CBr)cc1 [4'-Bromomethyl-2-cyanobiphenyl]: log Kow 3.2 and log solubility -6.657 (log10 mol/L) and vapor pressure -2.974 (log10 mmHg). Listed for CC(O)CN(CC(C)O)C(=O)CCCCC(=O)N(CC(C)O)CC(C)O (stereo not given) [Hexanediamide, N1,N1,N6,N6-tetrakis(2-hydroxypropyl)-]: MP 99.85 °C and vapor pressure -4.417 (log10 mmHg). Listed for O=C1CCC(=O)[C@H]2[C@@H]1[C@H]1CC[C@@H]2C1=C(Cl)Cl: MP 175.5 °C and log Kow 2.2 and log solubility -4.474 (log10 mol/L) and vapor pressure -6.72 (log10 mmHg). CCNc1nc(NC(C)CC)nc(OC)n1 (stereo not given) [Secbumeton] has Henry's law constant -8.445 (log10 atm·m3/mol) and plasma fu 0.0461 and intrinsic clearance 6.53 µL/min/10^6 cells.

Listed for Cc1ccc(O)c(/N=N/c2ccccc2[N+](=O)[O-])c1 [Phenol, 4-methyl-2-[(2-nitrophenyl)azo]-]: MP 117 °C and log Kow 4 and log solubility -5.748 (log10 mol/L). C/C=C/C(=O)C1C(C)=CCCC1(C)C (stereo partly drawn) [(2E)-1-(2,6,6-Trimethyl-2-cyclohexen-1-yl)-2-buten-1-one] is reported with MP 4 °C and log Kow 3.66 and log solubility -3.138 (log10 mol/L) and vapor pressure -1.62 (log10 mmHg). The entry for CCCCOCCOS(=O)(=O)[O-].[Na+] [Sodium 2-butoxyethyl sulfate] lists MP 126.4 °C and log Kow -2.7. COC(=O)c1ccc(CNS(C)(=O)=O)cc1S(=O)(=O)NC(=O)Nc1nc(OC)cc(OC)n1 [Mesosulfuron-methyl] has log solubility -3.02 (log10 mol/L) and vapor pressure -10.08 (log10 mmHg). The entry for CCCCOCCOC(=O)COc1nc(Cl)c(Cl)cc1Cl [Triclopyr butotyl] lists MP 150 °C and Henry's law constant -6.608 (log10 atm·m3/mol). The entry for C=COCCCCOC=C [Butane, 1,4-bis(ethenyloxy)-] lists MP -7.95 °C and log Kow 2.9 and log solubility -2.648 (log10 mol/L) and vapor pressure 0.051 (log10 mmHg). For CCCCCCCCC [Nonane] the data give plasma fu 0.08128 and intrinsic clearance 0.7797 µL/min/10^6 cells.

Listed for CC(O)CCC1CCCCC1 (stereo not given) [alpha-Methylcyclohexanepropanol]: log Kow 3.3 and log solubility -2.767 (log10 mol/L) and vapor pressure -0.204 (log10 mmHg). The entry for O=C1c2ccccc2-c2ccc3c4ccc5c6c(ccc(c7ccc1c2c73)c64)C(=O)c1ccccc1-5 [Vat Blue 20] lists log Kow 2.1 and log solubility -5.513 (log10 mol/L). The entry for CC=C1CC2CC1C1C3C=CC(C3)C21 (stereo not given) lists bp 260 °C and log solubility -6.066 (log10 mol/L). For Cc1ccc(-c2ccc(B(O)O)c(F)c2)cc1 [(4'-Methyl-3-fluoro[1,1'-biphenyl]-4-yl)-boronic acid] the data give log Kow 3.8 and log solubility -4.771 (log10 mol/L) and vapor pressure -5.262 (log10 mmHg). CO[C@H]1C[C@H](O[C@H]2[C@H](C)O[C@@H](O[C@@H]3C(C)=CC[C@@H]4C[C@@H](C[C@]5(CC[C@H](C)[C@@H](C6CCCCC6)O5)O4)OC(=O)[C@@H]4C=C(C)[C@@H](O)[C@H]5OCC(=CC=C[C@@H]3C)[C@]54O)C[C@@H]2OC)O[C@@H](C)[C@@H]1O is reported with MP 208.7 °C and log Kow 7.35 and log solubility -5.977 (log10 mol/L).

Excerpt, the final 3 entries:

{"smiles": "CC=C1CC2CC1C1C3C=CC(C3)C21", "stereo": "stereo not given", "bp (°C)": "260", "log solubility (log10 mol/L)": "-6.066"}
{"smiles": "Cc1ccc(-c2ccc(B(O)O)c(F)c2)cc1", "name": "(4'-Methyl-3-fluoro[1,1'-biphenyl]-4-yl)-boronic acid", "log Kow": "3.8", "log solubility (log10 mol/L)": "-4.771", "vapor pressure (log10 mmHg)": "-5.262"}
{"smiles": "CO[C@H]1C[C@H](O[C@H]2[C@H](C)O[C@@H](O[C@@H]3C(C)=CC[C@@H]4C[C@@H](C[C@]5(CC[C@H](C)[C@@H](C6CCCCC6)O5)O4)OC(=O)[C@@H]4C=C(C)[C@@H](O)[C@H]5OCC(=CC=C[C@@H]3C)[C@]54O)C[C@@H]2OC)O[C@@H](C)[C@@H]1O", "MP (°C)": "208.7", "log Kow": "7.35", "log solubility (log10 mol/L)": "-5.977"}

Values as listed in the OPERA 2.9 repository of K. Mansouri.